Reference: patent US10562947B2, “Compositions and methods for preventing or treating diseases, conditions or processes characterized by aberrant fibroblast proliferation and extracellular matrix deposition” (MOERAE MATRIX, INC., priority 2011, dated 2020)

Legend:
Test in all cases: Kinase Profiling Assay
Type in all cases: biochemical
Conditions in all cases: 100 μM peptide
MAPK1(h) = MAPK1(h) (Homo sapiens, UniProt P27361)
Procedure: (§1) Every kinase activity measurement was conducted in duplicate.
(§2) In addition to determining the IC50 of the compound, the specificity of MK2 inhibitory peptides was assessed by examining activities of all 266 human kinases available for testing in the Millipore kinase profiling service (Table 1).

Plk1(h) = molecular target: T1, Plk1(h) (Homo sapiens, UniProt P53350)
T1 construct: purchased Millipore (IC50 Profiler Express service)
Procedure: as §1, §2

MRCKα(h) = MRCKα(h) (Homo sapiens, UniProt Q5VT25)
Procedure: as §1, §2

CK1γ1(h) = CK1γ1(h) (Homo sapiens, UniProt Q9HCP0)
Procedure: as §1, §2

IGF-1R(h) = molecular target: T2, IGF-1R(h) (Homo sapiens, UniProt P08069)
T2 construct: purchased Millipore
Procedure: as §1, §2

Met(Y1248D)(h) = Met(Y1248D)(h) (Homo sapiens, UniProt P08581, Y1230D)
Procedure: as §1, §2

FAK(h) = FAK(h) (Homo sapiens, UniProt Q05397)
Procedure: as §1, §2

PAR-1Bα(h) = molecular target: T3, PAR-1Bα(h) (Homo sapiens, UniProt Q7KZI7)
T3 sequence (Q7KZI7 1-725 isoform Q7KZI7-4): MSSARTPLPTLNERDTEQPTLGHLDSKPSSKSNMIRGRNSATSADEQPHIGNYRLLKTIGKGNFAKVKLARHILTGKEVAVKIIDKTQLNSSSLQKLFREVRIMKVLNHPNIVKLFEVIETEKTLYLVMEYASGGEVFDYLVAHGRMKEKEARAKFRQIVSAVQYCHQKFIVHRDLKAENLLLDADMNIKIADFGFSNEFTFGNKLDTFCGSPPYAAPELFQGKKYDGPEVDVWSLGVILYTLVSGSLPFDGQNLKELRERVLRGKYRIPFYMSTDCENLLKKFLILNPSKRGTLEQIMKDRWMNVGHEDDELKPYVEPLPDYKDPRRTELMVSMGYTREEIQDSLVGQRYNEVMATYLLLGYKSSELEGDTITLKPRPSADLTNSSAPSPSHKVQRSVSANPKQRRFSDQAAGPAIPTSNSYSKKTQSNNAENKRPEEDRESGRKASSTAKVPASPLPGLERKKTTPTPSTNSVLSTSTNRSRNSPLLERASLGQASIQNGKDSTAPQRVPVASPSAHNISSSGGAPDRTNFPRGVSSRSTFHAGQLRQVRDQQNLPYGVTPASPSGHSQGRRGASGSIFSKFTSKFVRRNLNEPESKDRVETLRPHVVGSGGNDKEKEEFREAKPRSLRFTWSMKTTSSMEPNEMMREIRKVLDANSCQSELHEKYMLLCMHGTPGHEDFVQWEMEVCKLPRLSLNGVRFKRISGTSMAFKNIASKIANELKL
Procedure: as §1, §2

ACK1(h) = ACK1(h) (Homo sapiens, UniProt Q07912)
Procedure: as §1, §2

PKA(h) = PKA(h) (Homo sapiens, UniProt P17612)
Procedure: as §1, §2

TLK2(h) = TLK2(h) (Homo sapiens, UniProt Q86UE8)
Procedure: as §1, §2

CK2α2(h) = CK2α2(h) (Homo sapiens, UniProt P19784)
Procedure: as §1, §2

Met(Y1248H)(h) = Met(Y1248H)(h) (Homo sapiens, UniProt P08581, Y1230H)
Procedure: as §1, §2

JAK3(h) = molecular target: T4, JAK3(h) (Homo sapiens, UniProt P52333)
T4 construct: purchased Millipore
T4 sequence (P52333 1-1124): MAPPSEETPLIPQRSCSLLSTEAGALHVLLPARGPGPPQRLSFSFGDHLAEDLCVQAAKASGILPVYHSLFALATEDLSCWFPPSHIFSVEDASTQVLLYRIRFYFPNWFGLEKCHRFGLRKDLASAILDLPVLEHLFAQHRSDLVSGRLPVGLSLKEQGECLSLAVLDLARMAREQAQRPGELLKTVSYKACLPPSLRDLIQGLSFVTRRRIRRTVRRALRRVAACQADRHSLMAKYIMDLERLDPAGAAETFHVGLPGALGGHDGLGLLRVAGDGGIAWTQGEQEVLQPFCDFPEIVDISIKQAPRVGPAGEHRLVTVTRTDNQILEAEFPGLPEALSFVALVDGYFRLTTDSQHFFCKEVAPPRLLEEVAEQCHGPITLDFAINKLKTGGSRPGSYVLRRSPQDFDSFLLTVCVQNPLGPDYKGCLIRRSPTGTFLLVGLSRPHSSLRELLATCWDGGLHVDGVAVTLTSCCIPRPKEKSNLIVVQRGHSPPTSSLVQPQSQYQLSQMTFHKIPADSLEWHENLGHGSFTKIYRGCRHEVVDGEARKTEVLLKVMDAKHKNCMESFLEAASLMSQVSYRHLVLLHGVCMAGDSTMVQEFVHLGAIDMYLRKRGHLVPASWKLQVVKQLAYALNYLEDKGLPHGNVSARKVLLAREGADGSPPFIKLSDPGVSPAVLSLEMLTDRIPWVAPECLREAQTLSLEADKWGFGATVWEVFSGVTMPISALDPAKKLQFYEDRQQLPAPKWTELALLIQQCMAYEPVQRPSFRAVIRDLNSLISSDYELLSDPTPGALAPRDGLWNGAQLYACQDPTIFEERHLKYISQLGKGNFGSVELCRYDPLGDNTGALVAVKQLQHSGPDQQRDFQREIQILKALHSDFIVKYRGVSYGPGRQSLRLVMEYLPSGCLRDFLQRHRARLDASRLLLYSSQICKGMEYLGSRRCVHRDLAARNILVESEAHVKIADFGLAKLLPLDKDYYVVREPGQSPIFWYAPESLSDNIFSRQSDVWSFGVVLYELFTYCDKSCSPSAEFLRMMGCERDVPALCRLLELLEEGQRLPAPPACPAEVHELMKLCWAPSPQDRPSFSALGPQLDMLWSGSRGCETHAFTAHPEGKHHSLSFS
Procedure: as §1, §2

c-RAF(h) = c-RAF(h) (Homo sapiens, UniProt P04049)
Procedure: as §1, §2

cKit(V560G)(h) = cKit(V560G)(h) (Homo sapiens, UniProt P10721, V560G)
Procedure: as §1, §2

Snk(h) = Snk(h) (Homo sapiens, UniProt Q9NYY3)
Procedure: as §1, §2

PAK6(h) = PAK6(h) (Homo sapiens, UniProt Q9NQU5)
Procedure: as §1, §2

CLK2(h) = CLK2(h) (Homo sapiens, UniProt P49760)
Procedure: as §1, §2

PKCη(h) = PKCη(h) (Homo sapiens, UniProt P24723)
Procedure: as §1, §2

Tie2(R849W)(h) = Tie2(R849W)(h) (Homo sapiens, UniProt Q02763, R849W)
Procedure: as §1, §2

BTK(h) = BTK(h) (Homo sapiens, UniProt Q06187)
Procedure: as §1, §2

FGFR3(h) = FGFR3(h) (Homo sapiens, UniProt P22607)
Procedure: as §1, §2

GRK5(h) = molecular target: T5, GRK5(h) (Homo sapiens, UniProt P34947)
T5 construct: purchased Millipore
Procedure: as §1, §2

FGFR2(N549H)(h) = FGFR2(N549H)(h) (Homo sapiens, UniProt P21802, N549H)
Procedure: as §1, §2

PDGFRα(D842V)(h) = PDGFRα(D842V)(h) (Homo sapiens, UniProt P16234, D842V)
Procedure: as §1, §2

FAKLAARLYRKALARQLGVAA [MMI-0300]
MAPK1(h) % activity (MAPK1(h)): 107% | Plk1(h) % activity (Plk1(h)): 115% | MRCKα(h) % activity (MRCKα(h)): 104% | CK1γ1(h) % activity (CK1γ1(h)): 111% | IGF-1R(h) % activity (IGF-1R(h)): 119% | Met(Y1248D)(h) % activity (Met(Y1248D)(h)): 102% | FAK(h) % activity (FAK(h)): 111% | PAR-1Bα(h) % activity (PAR-1Bα(h)): 113% | ACK1(h) % activity (ACK1(h)): 104% | PKA(h) % activity (PKA(h)): 119% | TLK2(h) % activity (TLK2(h)): 114% | CK2α2(h) % activity (CK2α2(h)): 105% | Met(Y1248H)(h) % activity (Met(Y1248H)(h)): 117% | JAK3(h) % activity (JAK3(h)): 121% | c-RAF(h) % activity (c-RAF(h)): 107% | cKit(V560G)(h) % activity (cKit(V560G)(h)): 102% | Snk(h) % activity (Snk(h)): 114% | PAK6(h) % activity (PAK6(h)): 104% | CLK2(h) % activity (CLK2(h)): 103% | PKCη(h) % activity (PKCη(h)): 103% | Tie2(R849W)(h) % activity (Tie2(R849W)(h)): 117% | BTK(h) % activity (BTK(h)): 102% | FGFR3(h) % activity (FGFR3(h)): 102% | GRK5(h) % activity (GRK5(h)): 136% | FGFR2(N549H)(h) % activity (FGFR2(N549H)(h)): 116% | PDGFRα(D842V)(h) % activity (PDGFRα(D842V)(h)): 114%
